{
  "source": "patent US9645138B2",
  "about": "“Method to evaluate the tissue targeting of a molecule of interest” (IMABIOTECH, priority 2013, dated 2017)",
  "assay": "MALDI mass spectrometry imaging of mouse kidney sections after oral co-administration (Example 1)",
  "data": [
    {"compound": "Cc1cc2c(s1)Nc1ccccc1N=C2N1CCN(C)CC1", "note": "[Olanzapine]", "values": [
      {"measurement": "F2 (%)", "setting": "mouse kidney target tissue T1, positive control 100% and negative control 0% by definition, listed as olanzapine", "value": 27, "unit": "%"},
      {"measurement": "Mean normalized intensity per tissue T2", "setting": "mouse kidney, non target tissue T2 (renal cortex), oral 8 mg/kg, MALDI imaging", "value": 0.117},
      {"measurement": "Mean normalized intensity per tissue T1", "setting": "mouse kidney, target tissue T1 (medulla), oral 8 mg/kg, MALDI imaging", "value": 0.161}
    ]}
  ]
}
